Patent publication US7384912B2, “Treatment of bone disorders with skeletal anabolic drugs” (Osteotrophin, LLC, priority 2002, dated 2008)
Where two headings read alike, the source gives them in different places. Marks after values point to notes of the source that are not given here.

Columns and labels:
[1] = target: T1, PTH/PTHrP receptors in human renal cortical membranes (RCM) (Homo sapiens, UniProt Q03431); assay: Competition binding of 125I-(Tyr36)hPTHrP-(1-36)NH2 to human renal cortical membranes; details: 30° C., 30 min, read-out: Binding (IC50) Kidney membranes
T1 sequence (Q03431 27-593): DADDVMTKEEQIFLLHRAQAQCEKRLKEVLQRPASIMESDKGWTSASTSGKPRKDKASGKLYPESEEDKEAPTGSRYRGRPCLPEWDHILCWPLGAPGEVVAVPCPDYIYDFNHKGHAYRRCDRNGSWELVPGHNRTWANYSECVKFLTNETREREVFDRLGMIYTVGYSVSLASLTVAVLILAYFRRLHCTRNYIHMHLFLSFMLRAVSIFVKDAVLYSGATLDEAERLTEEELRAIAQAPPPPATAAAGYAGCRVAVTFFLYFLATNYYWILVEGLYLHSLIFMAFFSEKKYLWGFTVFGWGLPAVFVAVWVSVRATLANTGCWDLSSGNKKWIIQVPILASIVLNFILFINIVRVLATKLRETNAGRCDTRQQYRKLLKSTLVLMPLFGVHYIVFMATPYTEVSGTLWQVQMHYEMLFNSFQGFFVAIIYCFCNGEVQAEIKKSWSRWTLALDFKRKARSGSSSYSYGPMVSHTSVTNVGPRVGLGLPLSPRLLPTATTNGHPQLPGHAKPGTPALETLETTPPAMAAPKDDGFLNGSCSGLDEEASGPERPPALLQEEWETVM
Method: All steps were performed in the presence of the following protease inhibitors: aprotinin [10 Kallikrein inhibitor units (KIU/ml], pepstatin (5 μg/ml), leupeptin (45 μg/ml), and phenylmethanesulfanylfluoride (10 μg/ml). Normal human kidney cortex was from four separate nephrectomy specimens removed for localized transitional cell carcinoma, renal cell carcinoma, or benign cysts. Renal function in all individuals was normal as assessed by serum creatinine and pyelography. Membranes were pooled, aliquoted, and stored at −70° C. for later use.
Human RCM were added to a final concentration of 90 μg/ml. […] The incubation time of 30 min was used for subsequent equilibrium binding competition studies.
Statistical differences were assessed by paired and unpaired two-tailed Student's t test.

[2] = target: T2, PTH/PTHrP receptors on SaOS-2 intact cells (Homo sapiens, UniProt Q03431); assay: Competition binding of 125I-(Tyr36)hPTHrP-(1-36)NH2 to SaOS-2 intact cells; details: 15° C., 150 min
T2 sequence (Q03431 27-593): T1 sequence (Q03431 27-593)

[3] = test system: ovariectomized (OVX) rats; assay: Body weight, serum chemistries, kidney calcium and deaths in ovariectomized rats; details: for Alkaline Phosphatase / Body Weight Gain / Kidney calcium content / Serum Calcium / Serum Creatinine / Serum Magnesium / Serum Phosphate / Serum Urea Nitrogen: 40 μg/kg/day s.c. once daily
Method: All studies were performed using virus- and antibody-negative female Sprague-Dawley rats from Harlan Sprague-Dawley (Indianapolis, Ind.). All rats underwent sham ovariectomy or ovariectomy at 5 months of age. Studies began at six months of age, one month following ovariectomy or sham operation. Rats were maintained on a diet containing 0.5% calcium and 0.4% phosphorus. The light cycle was 12 hours.
The protocol employed is described in schematic form in Table IV. Animals were randomly assigned to 17 groups of 10 as described in the Table. […] For the peptide-treated animals, the peptide was administered daily, subcutaneously at a dose of 40 μg/kg/day, in the vehicle described above. For vehicle-treated animals, vehicle alone was administered in an identical fashion.
Serum and urine chemistries as described in Table XI were performed using standard autoanalyser methods (Boehringer-Mannheim-Hitachi, Indianapolis, Ind.). Kidney calcium content was determined following extraction of whole kidneys in 5% trichloroacetic acid, followed by calcium measurement by calcium analyzer (Calcette, Midfield, Mass.).

[4] = test system: patients with osteoporosis; details: cited from earlier work
[5] = cited from earlier work
rats = details: daily administration to rats over a two-year period (Eli Lilly report to the FDA); cited from earlier work
[6] = target: T3, PTH/PTHrP receptors in SaOS-2 membranes (Homo sapiens, UniProt Q03431); assay: Competition binding of 125I-(Tyr36)hPTHrP-(1-36)NH2 to SaOS-2 membranes; details: 30° C., 60 min
T3 sequence (Q03431 27-593): T1 sequence (Q03431 27-593)

Substance: bovine (b)PTH-(1-34) [bPTH-(1-34)]
- IC50 [1]: 0.39 ± 0.06 nM
- IC50 [2]: 1.3 ± 0.1 nM

Substance: hPTH-(1-34)
- treated animals that died during the study ([3]; 30 OVX rats per peptide, 40 μg/kg/day, six month study): 3%
- Alkaline Phosphatase ([3]; OVX rats, 30 days): 83 ± 3 IU/L
- Body Weight Gain ([3]; OVX rats, 30 days): 2.2 ± 1.3 g
- Kidney calcium content ([3]; OVX rats, 30 days): 0.25 ± 0.02 mg Ca/gm wet wt
- Serum Calcium ([3]; OVX rats, 30 days): 10.7 ± 0.1^a mg/dL
- Serum Creatinine ([3]; OVX rats, 30 days): 0.80 ± 0.01 mg/dL
- Serum Magnesium ([3]; OVX rats, 30 days): 2.89 ± 0.06 mg/dL
- Serum Phosphate ([3]; OVX rats, 30 days): 6.5 ± 0.2^ac mg/dL
- Serum Urea Nitrogen ([3]; OVX rats, 30 days): 20.1 ± 0.8^ac mg/dL
- Alkaline Phosphatase ([3]; OVX rats, 90 days): 102 ± 6^c IU/L
- Body Weight Gain ([3]; OVX rats, 90 days): 30.6 ± 4.8 g
- Kidney calcium content ([3]; OVX rats, 90 days): 0.36 ± 0.06^ac mg Ca/gm wet wt
- Serum Calcium ([3]; OVX rats, 90 days): 10.7 ± 0.1^ac mg/dL
- Serum Creatinine ([3]; OVX rats, 90 days): 0.78 ± 0.02 mg/dL
- Serum Magnesium ([3]; OVX rats, 90 days): 2.70 ± 0.03 mg/dL
- Serum Phosphate ([3]; OVX rats, 90 days): 5.4 ± 0.2^c mg/dL
- Serum Urea Nitrogen ([3]; OVX rats, 90 days): 22.1 ± 1.2 mg/dL
- Body Weight Gain ([3]; OVX rats, 180 days): 41.4 ± 16.2 g
- Kidney calcium content ([3]; OVX rats, 180 days): 0.24 ± 0.02^a mg Ca/gm wet wt
- Serum Calcium ([3]; OVX rats, 180 days): 10.9 ± 0.2^a mg/dL
- Serum Creatinine ([3]; OVX rats, 180 days): 0.75 ± 0.02 mg/dL
- Serum Magnesium ([3]; OVX rats, 180 days): 2.80 ± 0.07^c mg/dL
- Serum Phosphate ([3]; OVX rats, 180 days): 6.0 ± 0.3^c mg/dL
- Serum Urea Nitrogen ([3]; OVX rats, 180 days): 19.8 ± 0.8 mg/dL
- mean serum calcium, in words ([3]; OVX rats, throughout the six month study): remained normal
- incidence of hypercalcemia (serum calcium greater than […]) ([4]; 20 microgram dose (Neer et al.)): 11%
- incidence of hypercalcemia (serum calcium greater than […]) ([4]; 40 microgram dose (Neer et al.)): 28%
- time of peak plasma levels ([5]; following injection, reported in two studies): 30 to 45 min
- T1/2 ([5]; reported for hPTH(1-34)): five to six
- tumor findings (rats): development of osteogenic sarcomas

Substance: hPTHrP-(1-74)
- IC50 [1]: 9.5 ± 3.5 nM
- IC50 [2]: 12.9 ± 1.4 nM

Substance: rat (r)PTH-(1-34) [rPTH-(1-34)]
- IC50 [1]: 0.35 ± 0.15 nM
- IC50 [2]: 0.9 ± 0.2 nM
- IC50 [6]: 0.56 ± 0.06 nM
